Test results taken from patent US20230381162A1, “TREATMENTS OF ANGIOEDEMA” (KALVISTA PHARMACEUTICALS LIMITED, priority 2020, published 2023).

Sequences of proteins named here, by UniProt entry; tags and fusion partners are left off. Residues count along the entry.
UniProt P03952, 20-390 partner limits assumed: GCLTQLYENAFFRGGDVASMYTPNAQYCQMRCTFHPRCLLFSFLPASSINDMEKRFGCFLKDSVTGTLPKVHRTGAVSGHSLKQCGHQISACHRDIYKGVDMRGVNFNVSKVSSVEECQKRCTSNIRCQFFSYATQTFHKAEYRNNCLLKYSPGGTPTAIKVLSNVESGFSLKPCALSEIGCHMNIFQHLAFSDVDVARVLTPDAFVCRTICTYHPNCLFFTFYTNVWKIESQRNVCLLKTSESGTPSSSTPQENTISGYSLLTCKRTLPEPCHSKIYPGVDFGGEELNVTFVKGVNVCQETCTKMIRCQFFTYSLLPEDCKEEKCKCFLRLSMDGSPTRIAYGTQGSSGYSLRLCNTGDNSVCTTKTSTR
UniProt P03952, 391-638 limits assumed: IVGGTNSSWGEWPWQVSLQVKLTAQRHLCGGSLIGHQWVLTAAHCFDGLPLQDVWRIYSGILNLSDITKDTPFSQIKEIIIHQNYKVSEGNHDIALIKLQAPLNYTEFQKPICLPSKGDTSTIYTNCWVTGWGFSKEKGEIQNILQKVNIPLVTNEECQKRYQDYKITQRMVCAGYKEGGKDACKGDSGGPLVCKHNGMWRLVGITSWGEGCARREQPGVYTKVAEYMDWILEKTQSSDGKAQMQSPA

Biological target: plasma kallikrein (Homo sapiens, UniProt P03952)
Assay: Phase 1 study: ex vivo PKa catalytic activity in DXS-stimulated undiluted plasma
Design: PD measurements were determined in dextran sulfate (DXS) stimulated undiluted plasma using a fluorogenic enzyme assay; from tissue; host or cells: undiluted plasma of healthy adult male volunteers after oral dosing, DXS-stimulated ex vivo
Experimental: PD measurements were determined in dextran sulfate (DXS) stimulated undiluted plasma using a fluorogenic enzyme assay and capillary based HK cleavage immunoassay.
The time until appearance of detectable amidolytic enzyme activity in DXS-stimulated plasma (lag time) was calculated from the catalytic activity assay. The detection sensitivity of the rate of catalytic activity in plasma based on using a Spark (Tecan) fluorimeter is a fluorescence increase to reach 1ΔF unit/sec.

With COCc1nn(Cc2ccc(Cn3ccccc3=O)cc2)cc1C(=O)NCc1nccc(OC)c1F [compound of Formula A, N-[(3-fluoro-4-methoxypyridin-2-yl)methyl]-3-(methoxymethyl)-1-({4-[(2-oxopyridin-1-yl)methyl]phenyl}methyl)pyrazole-4-carboxamide] the “inhibition of plasma kallikrein catalytic activity” value (160 mg, 300 mg and 600 mg, for a period of time) was “above 90%”, the “average inhibition of plasma kallikrein catalytic activity” value (cohort 6 (160 mg), between 45 min and 2 hr post-dose) was over 90% and the “average inhibition of plasma kallikrein catalytic activity” value (cohort 7 (300 mg), between 20 min and 4 hr post-dose) was over 90%. The “inhibition of plasma kallikrein catalytic activity” value (cohort 8 (600 mg), between 30 min and 6 hr post-dose) was over 90% and the “inhibition of plasma kallikrein catalytic activity” value (cohort 8 (600 mg), for 10 hr) was over 50%.
